From ChEMBL document CHEMBL4814023, “The dual inhibition against the activity and expression of tyrosine phosphatase PRL-3 from a rhodanine derivative” (Bioorg Med Chem Lett, 2021)

Sequences of proteins named here, by UniProt entry; tags and fusion partners are left off.
UniProt O75365, whole entry: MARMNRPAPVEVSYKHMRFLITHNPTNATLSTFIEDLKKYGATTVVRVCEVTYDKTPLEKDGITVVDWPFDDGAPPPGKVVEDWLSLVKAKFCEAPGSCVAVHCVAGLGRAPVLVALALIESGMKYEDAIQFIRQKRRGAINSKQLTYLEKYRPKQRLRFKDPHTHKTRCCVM

Target: Protein tyrosine phosphatase type IVA 3 (Homo sapiens, UniProt O75365)

O=C1NC(=S)S/C1=C\c1cc(Cl)ccc1Cl
Ka: 6.44 10^6/M
